From PubChem BioAssay AID588726 (The Scripps Research Institute Molecular Screening Center, 2011)
The list shows a part of the results, in another mix than the full data. Activity calls are given as the source filed them. Rule as the data show it: active = inhibition above about 27%; inactive = the rest.

Chains of the proteins cited; added tags and fusions are not shown.
UniProt P9WQA3, whole entry: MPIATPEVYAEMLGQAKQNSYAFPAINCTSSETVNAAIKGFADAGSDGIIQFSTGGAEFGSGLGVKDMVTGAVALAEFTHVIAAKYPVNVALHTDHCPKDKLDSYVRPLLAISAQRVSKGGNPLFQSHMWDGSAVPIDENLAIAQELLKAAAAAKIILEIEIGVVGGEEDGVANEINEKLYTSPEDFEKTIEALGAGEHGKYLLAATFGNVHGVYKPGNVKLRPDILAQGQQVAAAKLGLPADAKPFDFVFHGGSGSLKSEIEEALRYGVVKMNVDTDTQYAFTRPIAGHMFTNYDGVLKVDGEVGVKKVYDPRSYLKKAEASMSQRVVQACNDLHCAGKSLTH

Target: Fructose-bisphosphate aldolase (Mycobacterium tuberculosis (strain ATCC 25618 / H37Rv)) (UniProt P9WQA3)
Test: Mtb FBA enzyme inhibitors, primary screen, biochemical, fluorescence, strain H37Rv (AID 588726);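 also: 0% = vehicle and 100% = reference inhibitor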
Conditions: purified M. tuberculosis FBA, fluorescence read-out; at 1 µM; active compounds read high

Structure (SMILES)	inhibition
CCC(=O)N(c1ccccc1)C1(COC)CCN(CCc2cccs2)CC1	inactive: 5.57%
CCC(=O)N(c1ccccc1)C1(COC)CCN(CCn2nnn(CC)c2=O)CC1	inactive: -0.16%
